Values of other authors, collected in US20260096996A1, “PHARMACEUTICAL COMPOSITIONS OF TRETINOIN AND METHODS OF PRODUCING SUCH COMPOSITIONS” (Douglas Pharmaceuticals Limited, priority 2022, published 2026).

Conditions: during 1 week of continuous therapy, on average

For `CC1=C(/C=C/C(C)=C/C=C/C(C)=C/C(=O)O)C(C)(C)CCC1` [tretinoin, all-trans retinoic acid], the “plasma tretinoin concentrations relative to day 1 values” is given as “one-third”.
